Patent publication US8354392B2, “Drug-introduced photo-crosslinked hyaluronic acid derived gel” (priority 2005, dated 2013)

Columns and labels:
Assay type in all cases: physicochemical
[1] = Viscosity measured with a rotation viscometer; conditions: gel from 1% solution in phosphate buffered physiological saline, photoirradiated, heat treatment; rotation viscometer at 20° C., standard cone (1°34′, 1 rpm)
Description: A 1% phosphate buffered physiological saline solution of the obtained naproxen-introduced photo-reactive HA (photo-reactive group: cinnamic acid) was prepared, and filled in a 5 mL glass syringe.
(§1) Evaluation was carried out in accordance with the following criteria.

[2] = Extrusion state from the tip of a 23 G injection needle (characteristics); design: key: ◯: formed a mass or a lump having a shape-maintaining property at the tip of the injection needle; X: did not form a mass; conditions: slowly extruded from an injection needle with 23 G downward
Description: as §1

[3] = Extrusion feeling through a 23 gauge injection needle; design: key: ◯: easily extruded; X: difficulty extruded; conditions: whole gel (2 ml to 5 ml) in 5 ml syringe, 23 gauge needle, limit pressure 0.5 to 5 kg/cm^2
Description: Evaluation was carried out in accordance with the following criteria. ◯: easily extruded X: difficulty extruded Incidentally, with regard to the criteria for the extrusion feeling, within the range of a limit pressure (0.5 to 5 kg/cm^2), when a whole gel (2 ml to 5 ml) filled in a syringe having a volume of 5 ml was extruded through an injection needle of 23 gauge, it was evaluated to as easily extruded (◯). Also, according to the same operation, when not a whole gel filled in a syringe was extruded, for example, by clogging due to insoluble materials, it was evaluated to as difficulty extruded (X).

**Q.** With “naproxen-introduced photo-crosslinked HA gel [Example 2]” as the substance, how does the viscosity [1] read?
**A.** Its viscosity is 34.7 Pa·s.

**Q.** And the Extruded state [2]?
**A.** Its Extruded state is “◯”.

**Q.** What about the Extrusion feeling [3] of the same substance?
**A.** Its Extrusion feeling is “◯”.
